Consider 4 molecules from article PMC6405842, “Identification of a novel scaffold for a small molecule GPR139 receptor agonist” (Scientific Reports, 2019).

Amino acid sequences for entries named in this document (tags omitted).
UniProt Q6DWJ6, whole entry: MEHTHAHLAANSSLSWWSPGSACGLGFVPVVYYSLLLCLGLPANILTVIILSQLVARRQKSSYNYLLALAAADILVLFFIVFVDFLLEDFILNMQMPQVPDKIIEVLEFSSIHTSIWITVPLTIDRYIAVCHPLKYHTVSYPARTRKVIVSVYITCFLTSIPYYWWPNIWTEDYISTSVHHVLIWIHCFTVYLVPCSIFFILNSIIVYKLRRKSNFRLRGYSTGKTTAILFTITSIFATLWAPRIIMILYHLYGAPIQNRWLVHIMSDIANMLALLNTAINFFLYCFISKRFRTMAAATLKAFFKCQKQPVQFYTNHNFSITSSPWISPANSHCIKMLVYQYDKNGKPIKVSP
UniProt P11229, whole entry: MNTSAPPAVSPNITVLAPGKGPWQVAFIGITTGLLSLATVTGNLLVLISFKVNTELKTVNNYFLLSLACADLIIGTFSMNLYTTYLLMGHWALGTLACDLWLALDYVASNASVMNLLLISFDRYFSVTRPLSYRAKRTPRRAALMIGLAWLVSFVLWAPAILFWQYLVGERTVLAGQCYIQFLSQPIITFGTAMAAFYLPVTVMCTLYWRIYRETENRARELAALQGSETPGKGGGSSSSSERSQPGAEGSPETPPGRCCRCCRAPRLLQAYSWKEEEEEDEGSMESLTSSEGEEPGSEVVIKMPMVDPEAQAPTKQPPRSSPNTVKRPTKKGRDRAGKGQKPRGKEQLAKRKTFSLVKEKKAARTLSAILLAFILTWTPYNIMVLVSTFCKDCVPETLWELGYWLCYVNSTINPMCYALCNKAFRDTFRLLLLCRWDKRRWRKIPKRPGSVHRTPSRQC

One data set has as its target GPR139 (Homo sapiens, UniProt Q6DWJ6). Kind of data set: Fluo-4 calcium mobilization assay, agonist mode, concentration-response curves in CHO-GPR139 cells. The settings on record: for EC50: GPR139; for pEC50 ± SEM: GPR139, values printed with a minus sign; for Emax ± SEM: efficacy normalized to compound 1a.
The target in data set [1] is muscarinic acetylcholine receptor M1 (Homo sapiens, UniProt P11229). Kind of data set: Calcium mobilization counter-screen in CHO-M1 cells. The format is cell-based. As to conditions: concentration from which the calcium response is nonspecific. The method, then: All compounds were tested on a CHO-k1 cell line stably expressing GPR139 (CHO-GPR139)[11] kindly provided by H. Lundbeck A/S, Denmark. GPR139-specific responses were assessed using a CHO-k1 cell line stably expressing the muscarinic acetylcholine receptor M1 (CHO-M1) (The Missouri S&T cDNA Resource Center, # CEM100TN00). The CHO-GPR139 cells were grown in Dulbecco’s modified Eagle’s medium (DMEM) F12-Kaighn’s (ThermoFisher Scientific # 21127) supplemented with 10% dialyzed fetal bovine serum (United States origin; ThermoFisher Scientific # 26400), 1% GlutaMAX-I (100X) (ThermoFisher Scientific # 35050061), and 100 units/mL penicillin and 100 µg/mL streptomycin (ThermoFisher Scientific # 15140122) and 1 mg/mL geneticin (ThermoFisher Scientific # 11811031). The CHO-M1 cells were grown in Ham’s F12 (ThermoFisher Scientific # 21765) supplemented with 10% fetal bovine serum (South American origin; ThermoFisher Scientific # 10270) + 100 units/mL penicillin and streptomycin and 0.25 mg/mL geneticin.
The primary screening of 4,000 diverse screening compounds on GPR139, led us to identify 108 initial actives in GPR139-expressing cells. […] We excluded compounds that had (1) an effect on another simultaneously tested GPCR (data not shown), (2) reactive groups, or (3) poor predicted solubility. 52 of the active compounds were re-purchased for validation, which were tested at three concentrations (100, 50 and 25 μM) using the same methodology as in the screening campaign. Out of the 52 compounds, 13 compounds had no effect (excluded as false positives), 28 compounds elicited an equal response in GPR139 and muscarinic acetylcholine receptor M1 cells and were designated as not selective, and 11 compounds were identified as viable candidates (AC4, AC7, AC8, AC9, AC10, AC11, AC12, AC13, AC14, AC16, and AC37) (Supplementary Fig. S1). None of the 11 hits promoted calcium mobilization in the M1 receptor cells (data not shown). The 11 hits were then screened in pure agonist mode (i.e., without the presence of 1a) to evaluate if they were agonists or antagonists (Fig. 3 and Supplementary Table S1). All 11 hits were agonists.
When screening the compounds as antagonists they were pre-incubated for 10 min as in the HTS. 33 μL of 3.2 μM 1a on the CHO-GPR139 cells or 20 μM carbachol on the CHO-M1 cells were added automatically after baseline measurements.

The nature of data set [2]: Solubility remark in the Note column of Supplementary Table S2. As to conditions: polar solvents.

SMILES strings stand for the structures.

For `CC1(c2ccc3c(c2)OCO3)NC(=O)N(CC(=O)c2ccc3c(c2)OCO3)C1=O` (centres unmarked), at GPR139, the EC50 came out at 2080 nM, the “pEC50 ± SEM” value was -5.68 and the Emax ± SEM turned out to be 114%. Also, in data set [1], the “Note: Nonspecific ≥ concentration” value is given as “Nonspecific ≥ 30 μM”.

Consider `CCC1(c2ccc(OC)cc2)NC(=O)N(CC(=O)c2ccc3c(c2)OCO3)C1=O` (centres unmarked), for which, at GPR139, the EC50 is 1630 nM, the “pEC50 ± SEM” value was -5.79 and the Emax ± SEM worked out at 114%. The “Note: Nonspecific ≥ concentration” value in data set [1] was “Nonspecific ≥ 10 μM”.

For the molecule `Cc1ccc(C)c(C(=O)CN2C(=O)NC(C)(c3ccc4c(c3)OCCO4)C2=O)c1` (centres unmarked), on GPR139, the concentration giving a half-maximal response (EC50) turned out to be 1190 nM, the “pEC50 ± SEM” value is on record as -5.93 and the Emax ± SEM stood at 102%. In data set [1], the “Note: Nonspecific ≥ concentration” value is “Nonspecific ≥ 30 μM”.

Turning to `Cc1ccc(C2(C)NC(=O)N(Cc3cn4cc(Cl)ccc4n3)C2=O)cc1` (single isomer, unassigned), at GPR139, the “pEC50 ± SEM” value is -5.55. The “Note: solubility” value in data set [2] was “Poor solubility in polar solvents”.
